Water solubility values, as collected for the OPERA models

From the experimental data distributed with OPERA 2.9.

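These are experimental values that the OPERA curators gathered from public databases to train and test their QSAR models. The files give a single number for a compound and property, which may rest on several reports. Method, purity and exact conditions of the single measurements are not given. The measured form (salt, isomer or mixture) is not always the one drawn. Some upstream entries may be estimates or bounds without being marked so.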

Solubility in water is on a log10 molar scale (set defined at 25 °C). Cells with "n/a" have no entry in this list.

| SMILES | name | water solubility (log10 mol/L) |
|---|---|---|
| COC(CC(=O)O)c1ccccc1 (stereo not drawn) | 3-Methoxy-3-phenylpropanoic acid | -1.695 |
| C#CCOCc1ccc(Cl)cc1 | 1-Chloro-4-[(2-propyn-1-yloxy)methyl]benzene | -2.998 |
| CS(=O)(=O)c1ccc(C(=O)O)c(Cl)c1 | Benzoic acid, 2-chloro-4-(methylsulfonyl)- | -0.592 |
| COc1nccnc1NS(=O)(=O)c1ccc(N)cc1 | Sulfalene | -2.839 |
| NCCc1cc[nH]n1 | Betazole | 0.147 |
| Clc1ccc(COC(Cn2ccnc2)c2ccc(Cl)cc2Cl)cc1 (stereo not drawn) | Econazole | -5.411 |
| CC(=O)OCCCCCc1ccc(S(N)(=O)=O)cc1 | 5-(4-Sulfamoylphenyl)pentyl acetate | -2.376 |
| CCCCCCCCCCCCOC(=O)CS(=O)(=O)[O-].[Na+] | Sodium 2-(dodecyloxy)-2-oxoethane-1-sulphonate | -0.975 |
| Brc1ccc(Oc2ccc(Br)c(Br)c2)cc1Br | BDE-77 | -7.908 |
| CNc1ccc(NC)c2c1C(=O)c1ccccc1C2=O | n/a | -6.86 |
| Clc1ccc(Oc2cc(Cl)c(Cl)c(Cl)c2Cl)c(Cl)c1 | 2,2',3,4,4',5-Hexachlorodiphenylether | -8.44 |
| O=C1C=CC(=O)N1c1ccc(Cc2ccc(N3C(=O)C=CC3=O)cc2)cc1 | Bismaleimide | -5.998 |
| Cc1ccc(I)cc1Cc1ccc(-c2ccc(F)cc2)s1 | n/a | -7.785 |
| COc1ccc(NC(=O)[C@@H]2C[C@H](C)CC[C@H]2C(C)C)cc1 | n/a | -5.821 |
| C=CC(=O)OCCN(C)S(=O)(=O)C(F)(F)C(F)(F)C(F)(F)C(F)(F)F | 2-(N-Methylperfluorobutylsulfonamido)ethyl acrylate | -5.309 |
| O=C(CCBr)N1CCN(C(=O)CCBr)CC1 | Pipobroman | -2.201 |
| CC1=C(C(=O)O)CCCC1 | 2-Methylcyclohex-1-ene-1-carboxylic acid | -2.283 |
| CC(C)=CCCC(C)CC=O (stereo not drawn) | Citronellal | -3.244 |
| CCCCCCC(C)OC(=O)CCCCC(=O)OC(C)CCCCCC (stereo not drawn) | Hexanedioic acid, bis(1-methylheptyl) ester | -7.946 |
| C=C(C)C(=O)OCCC[Si](C)(C)O[Si](C)(C)CCCOC(=O)C(=C)C | n/a | -3.069 |
| CS(=O)(=O)c1ccc(C=O)c(C(F)(F)F)c1 | n/a | -2.465 |
| Cn1c(=O)[nH]c(=O)c2[nH]c(=O)[nH]c21 | 4,9-Dihydro-3-methyl-1H-purine-2,6,8(3H)-trione | -3.53 |
| O=C(O)/C=C/c1ccccc1O[C@@H]1O[C@H](CO)[C@@H](O)[C@H](O)[C@H]1O | Melilotoside | -1.514 |
| CCN(CC)c1ccc2nc3ccc(=[N+](CC)CC)cc-3oc2c1.O=C[O-] | Phenoxazin-5-ium, 3,7-bis(diethylamino)-, formate | -2.431 |
| CCC(=O)NC(C)=O | Propanamide, N-acetyl- | -0.806 |
| CC(C)COC(=O)c1ccccc1O | Isobutyl salicylate | -3.998 |
| COc1ccc(OC(=O)c2ccc(OCCCCC3CO3)cc2)cc1 (stereo not drawn) | 4-Methoxyphenyl 4-(4-(2-oxiranyl)butoxy)benzoate | -5.767 |
| O=[N+]([O-])c1cc(Cl)c(OC(F)(F)C(F)C(F)(F)F)cc1Cl (stereo not drawn) | n/a | -4.806 |
| Clc1ccc(Oc2cc(Cl)c(Cl)c(Cl)c2Cl)cc1 | 2,3,4,4',5-pentachlorodiphenyl ether | -8.06 |
| O=[N+]([O-])c1cc(Cl)c(N=Nc2ccc(N(CCO)CCO)cc2Cl)c(Br)c1 | n/a | -5.429 |
| COc1ccc(C(OC[C@H]2O[C@@H](n3cc(C)c(=O)[nH]c3=O)C[C@@H]2O)(c2ccccc2)c2ccc(OC)cc2)cc1 | Thymidine, 5'-O-[bis(4-methoxyphenyl)phenylmethyl]- | -5.259 |
| CCCCCCCCCCCCCCCCCC(=O)CCCCCCCCCCCCCCCCC | 18-Pentatriacontanone | -7.404 |
| CS(=O)(=O)OCC1COC(Cn2cncn2)(c2ccc(Cl)cc2Cl)O1.Cl (stereo not drawn) | n/a | -3.027 |
| C=C(C)C(=O)OCC(CCC)CCCCC (stereo not drawn) | 2-Propylheptyl 2-methylprop-2-enoate | -5.674 |
| CCCCC(=O)OCC(=O)[C@H]1[C@H](C)C[C@H]2[C@@H]3C[C@H](F)C4=CC(=O)C=C[C@]4(C)C3=CC[C@@]21C | n/a | -6.044 |
| CC(CC(=O)[O-])CC(C)(C)C.CC(CC(=O)[O-])CC(C)(C)C.[Ca+2] (stereo not drawn) | Calcium bis(3,5,5-trimethylhexanoate) | -2.413 |
| CC(=O)c1ccc(Oc2ccc(Cl)cc2)cc1Cl | 1-[2-Chloro-4-(4-chlorophenoxy)phenyl]ethan-1-one | -5.127 |
| COc1cc(OC)c(NC(=O)c2cc3ccccc3cc2O)cc1Cl | n/a | -5.378 |
| O=C(O)Cc1ccc(O)c(O)c1 | 3,4-Dihydroxyphenylacetic acid | -1.624 |
| CCCC1CCC(C2CCC(c3ccc(OC)c(F)c3F)CC2)CC1 (stereo not drawn) | n/a | -7.202 |
| COC(=O)c1c(Cl)c(Cl)c(C(=O)SC)c(Cl)c1Cl | Glenbar | -5.985 |
| CCCCCCCCCCCCN1CC(C(=O)O)CC1=O (stereo not drawn) | 1-Dodecyl-5-oxopyrrolidine-3-carboxylic acid | -3.223 |
| CC(C)(CO)C1OCC2(CO1)COC(C(C)(C)CO)OC2 (stereo not drawn) | n/a | -3.258 |
| NNC(=O)c1cccc(C(=O)NN)c1 | Isophthalyl dihydrazide | -1.677 |
| COc1c(O)cc(Cl)c(Cl)c1Cl | 3,4,5-Trichloro-2-methoxyphenol | -2.87 |
| CCCC(=NOCC(C)Oc1ccc(Cl)cc1)C1=C(O)CC(C2CCCSC2)CC1=O (stereo not drawn) | Profoxydim | -4.939 |
| CNc1cccc2c1C(=O)c1ccccc1C2=O | 1-(Methylamino)anthraquinone | -6.3 |
| O=C(Nc1ccccc1)NC1CC1 | N-Cyclopropyl-N'-phenylurea | -1.9 |

A selection of 8 entries from above:

| SMILES | name | water solubility (log10 mol/L) |
|---|---|---|
| CCCCCCC(C)OC(=O)CCCCC(=O)OC(C)CCCCCC (stereo not drawn) | Hexanedioic acid, bis(1-methylheptyl) ester | -7.946 |
| COC(CC(=O)O)c1ccccc1 (stereo not drawn) | 3-Methoxy-3-phenylpropanoic acid | -1.695 |
| Cn1c(=O)[nH]c(=O)c2[nH]c(=O)[nH]c21 | 4,9-Dihydro-3-methyl-1H-purine-2,6,8(3H)-trione | -3.53 |
| Clc1ccc(COC(Cn2ccnc2)c2ccc(Cl)cc2Cl)cc1 (stereo not drawn) | Econazole | -5.411 |
| O=C(O)/C=C/c1ccccc1O[C@@H]1O[C@H](CO)[C@@H](O)[C@H](O)[C@H]1O | Melilotoside | -1.514 |
| NNC(=O)c1cccc(C(=O)NN)c1 | Isophthalyl dihydrazide | -1.677 |
| O=C(CCBr)N1CCN(C(=O)CCBr)CC1 | Pipobroman | -2.201 |
| C=C(C)C(=O)OCC(CCC)CCCCC (stereo not drawn) | 2-Propylheptyl 2-methylprop-2-enoate | -5.674 |